# In PubChem BioAssay AID1259398 (Fisher Drug Discovery Resource Center, 2018):
# Chains of the proteins cited; added tags and fusions are not shown.
# UniProt Q8N884, whole entry: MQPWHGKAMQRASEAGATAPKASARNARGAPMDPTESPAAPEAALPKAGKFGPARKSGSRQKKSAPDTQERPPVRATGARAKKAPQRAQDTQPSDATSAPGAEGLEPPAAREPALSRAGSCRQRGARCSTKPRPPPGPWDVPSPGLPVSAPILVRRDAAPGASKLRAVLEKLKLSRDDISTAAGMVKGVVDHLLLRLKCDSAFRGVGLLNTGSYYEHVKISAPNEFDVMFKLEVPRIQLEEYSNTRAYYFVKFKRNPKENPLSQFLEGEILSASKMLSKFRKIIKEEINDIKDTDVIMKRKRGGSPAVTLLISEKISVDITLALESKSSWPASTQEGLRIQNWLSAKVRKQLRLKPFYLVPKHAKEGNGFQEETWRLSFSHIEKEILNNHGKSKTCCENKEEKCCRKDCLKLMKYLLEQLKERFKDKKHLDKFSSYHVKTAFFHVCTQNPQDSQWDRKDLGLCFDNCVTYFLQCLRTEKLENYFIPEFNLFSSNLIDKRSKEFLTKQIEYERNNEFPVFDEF
# “And” between values parts separate entries of the source, which are not always exact repeats. Equal values may be shown once. Only a part is listed here, and it is no random draw. Some structures show a salt or complex split into parts, the way the source records it. The source made the active and inactive calls. No stated cut-off is given here; in the data, active means inhibition above about 40%; inactive means the rest.
# Target: Cyclic GMP-AMP synthase (Homo sapiens) (UniProt Q8N884)
# Test: Biochemical Kinase-Glo luminescence primary assay, human cyclic GMP-AMP synthase inhibition (AID 1259398);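 further: 0% = vehicle reaction and 100% = reaction without DNA for no activity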
# Details: recombinant h-cGAS, ATP depletion, at 12.5 µM, hits give high values
row,Compound,inhibition
1,CP(=O)(O)OC(c1ccccc1)C(F)(F)C(F)(F)F (stereo not given),inactive: -9.98%
2,Cc1cc(C)cc(OP(C)(=O)Nc2cc(Cl)ccc2C)c1 (stereo not given),inactive: -2.97%
3,CP(N)(=O)Oc1ccccc1F (stereo not given),inactive: 2.47%
4,CN1CC(=O)N(C)P1(C)=S (stereo not given),inactive: 1.24%
5,O=[N+]([O-])C1([N+](=O)[O-])COCOC1,inactive: -5.39%
6,CN([N+](=O)[O-])C(Br)([N+](=O)[O-])[N+](=O)[O-],inactive: 1.76%
7,Cc1ccc(NP(C)(=O)Oc2ccc(Cl)cc2)cc1 (stereo not given),inactive: -4.25%
8,Cn1cc([N+](=O)[O-])nc1[N+](=O)[O-],inactive: -0.994%
9,CP(=O)(Nc1cccc(F)c1)Oc1ccc(Cl)cc1 (stereo not given),inactive: -10.4%
10,CP(=O)(Nc1ccc(Cl)cc1Cl)Oc1ccccc1 (stereo not given),inactive: -6.51%
11,CP(=O)(Nc1ccc(F)cc1)Oc1ccc(Cl)cc1 (stereo not given),inactive: -2.01%
12,OCCSCCO,inactive: -3.9%
13,COc1ccc(OP(C)(=O)Nc2ccc(Br)cc2)cc1 (stereo not given),inactive: -10.4%
14,CP(=O)(Oc1ccc(F)cc1)OC(c1ccccc1)C(F)(F)F (stereo not given),inactive: -7.92%
15,COc1cccc(C(OP(C)(=O)O)C(F)(F)F)c1 (stereo not given),inactive: -0.239%
16,CC(C)(C)c1ccc(OP(C)(=O)O)cc1,inactive: -1.03%
17,CCCCOc1ccc(NP(C)(=O)Oc2ccc(CC)cc2)cc1 (stereo not given),inactive: -3.8%
18,CP(=O)(O)OC(c1ccccc1)C(F)(F)F (stereo not given),inactive: -2.13%
19,Nc1nonc1N=Nc1nonc1N,inactive: 3.21%
20,CP(=O)(Nc1ccccc1Br)Oc1ccccc1 (stereo not given),inactive: -4.39% and inactive: -5.97%

row,Compound,inhibition
1,CP(=O)(O)OC(c1cccc(Cl)c1)C(F)(F)F (stereo not given),inactive: 1.59%
2,CP(=O)(Oc1ccccc1)OC(c1ccccc1)C(F)(F)F (stereo not given),inactive: -35.9%
3,COC(=O)NC(c1ccccc1)P(=O)(Cl)Cl (stereo not given),inactive: -6.07%
4,CN(C)CCS,inactive: -0.591%
5,CCOP(C)(=S)SCN(CC(=O)O)C(=O)OC (stereo not given),inactive: -5.33%
6,Cc1cccc(C)c1OP(C)(N)=O (stereo not given),inactive: -3.76%
7,CP(=O)(Nc1ccc(Br)cc1)Oc1ccccc1 (stereo not given),inactive: -2.71%
8,CC(C)(C)c1ccc(OP(C)(N)=O)cc1 (stereo not given),inactive: -1.71%
9,COc1ccc(OP(C)(=O)Nc2cccc(F)c2)cc1 (stereo not given),inactive: 0.365%
10,Cc1cc(C)cc(OP(C)(N)=O)c1 (stereo not given),inactive: -4.63%
11,CCN(C1=NCCCS1)P(O)(=S)CC (stereo not given),inactive: -2.29%
12,CP(=O)(O)OC(c1cccc(C(F)(F)F)c1)C(F)(F)F (stereo not given),inactive: -3.37%
13,Cc1ccc(NP(C)(=O)Oc2ccc(C(C)(C)C)cc2)cc1 (stereo not given),inactive: -5.93%
14,Cc1ccc(NP(C)(=O)Oc2ccc(C(C)C)cc2)cc1C (stereo not given),inactive: -1.17%
15,CC(=O)N(CCN(C(C)=O)[N+](=O)[O-])[N+](=O)[O-],inactive: -2.15%
16,C/C1=C2N=C(/C=C3N=C(/C(C)=C4\[N-]C(C)(C5N=C1C(C)(CCC(=O)NCC(C)OP(=O)(O)OC1C(CO)OC(n6cnc7cc(C)c(C)cc76)C1O)C5CC(N)=O)C(C)(CC(N)=O)C4CCC(N)=O)C(C)(CC(N)=O)C\3CCC(N)=O)C(C)(C)C/2CCC(N)=O.[C-]#N.[Co+3] (stereo not given),inactive: -17.9%
17,CP(=O)(Nc1ccc(Br)cc1)Oc1ccc(Cl)cc1 (stereo not given),inactive: -6.66%
18,Cc1ccc(Cl)cc1NP(C)(=O)Oc1ccccc1 (stereo not given),inactive: -6.89%
19,COc1ccc(OP(C)(=O)Nc2ccc(Cl)cc2)cc1 (stereo not given),inactive: -1.91%
20,Nc1cc([N+](=O)[O-])cc([N+](=O)[O-])c1O,inactive: -4.01%
